Experimental findings from ChEMBL document CHEMBL5096191, “Design of Negative and Positive Allosteric Modulators of the Cannabinoid CB2 Receptor Derived from the Natural Product Cannabidiol” (J Med Chem, 2021) are described below.

Sequences of proteins named here, by UniProt entry; tags and fusion partners are left off.
UniProt P34972, whole entry: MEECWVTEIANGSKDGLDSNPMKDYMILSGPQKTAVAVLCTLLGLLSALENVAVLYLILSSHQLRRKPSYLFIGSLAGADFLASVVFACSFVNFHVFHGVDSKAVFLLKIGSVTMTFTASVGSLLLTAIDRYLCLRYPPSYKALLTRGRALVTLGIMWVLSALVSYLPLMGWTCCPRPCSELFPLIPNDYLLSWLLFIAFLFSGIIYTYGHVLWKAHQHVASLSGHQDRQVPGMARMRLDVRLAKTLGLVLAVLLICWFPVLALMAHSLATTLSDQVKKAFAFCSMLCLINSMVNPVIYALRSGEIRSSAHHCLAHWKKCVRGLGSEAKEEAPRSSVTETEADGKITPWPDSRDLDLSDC
UniProt P34972, whole entry S285L: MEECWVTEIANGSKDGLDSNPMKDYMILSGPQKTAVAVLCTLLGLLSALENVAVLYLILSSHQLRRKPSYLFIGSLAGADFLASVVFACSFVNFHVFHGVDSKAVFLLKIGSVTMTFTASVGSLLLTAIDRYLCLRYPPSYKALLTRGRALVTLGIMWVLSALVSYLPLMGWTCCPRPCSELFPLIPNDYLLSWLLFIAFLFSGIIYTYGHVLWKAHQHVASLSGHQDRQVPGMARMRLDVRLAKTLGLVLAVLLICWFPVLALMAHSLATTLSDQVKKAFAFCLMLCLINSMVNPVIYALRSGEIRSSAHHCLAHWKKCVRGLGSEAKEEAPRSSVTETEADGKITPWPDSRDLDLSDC
UniProt P34972, whole entry A282M: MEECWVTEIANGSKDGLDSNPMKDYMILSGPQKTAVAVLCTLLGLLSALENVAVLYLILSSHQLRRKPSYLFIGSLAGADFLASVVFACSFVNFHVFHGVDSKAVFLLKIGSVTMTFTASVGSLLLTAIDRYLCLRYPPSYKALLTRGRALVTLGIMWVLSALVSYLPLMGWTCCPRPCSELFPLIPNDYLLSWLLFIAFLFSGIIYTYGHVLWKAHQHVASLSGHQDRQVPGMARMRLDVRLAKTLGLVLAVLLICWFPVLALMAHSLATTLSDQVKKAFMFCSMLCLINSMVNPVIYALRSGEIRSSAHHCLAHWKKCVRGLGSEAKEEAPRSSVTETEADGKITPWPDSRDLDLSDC
UniProt P34972, whole entry V36M: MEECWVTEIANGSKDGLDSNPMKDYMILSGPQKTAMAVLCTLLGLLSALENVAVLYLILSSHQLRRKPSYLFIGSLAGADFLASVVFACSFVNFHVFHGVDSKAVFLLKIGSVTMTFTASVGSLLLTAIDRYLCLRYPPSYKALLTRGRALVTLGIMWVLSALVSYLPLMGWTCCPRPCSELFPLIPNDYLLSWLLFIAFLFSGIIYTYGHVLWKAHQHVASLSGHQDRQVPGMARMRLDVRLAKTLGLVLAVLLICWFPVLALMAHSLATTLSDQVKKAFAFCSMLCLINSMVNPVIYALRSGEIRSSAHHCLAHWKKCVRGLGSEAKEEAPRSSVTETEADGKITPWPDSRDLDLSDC
UniProt P34972, whole entry V113M: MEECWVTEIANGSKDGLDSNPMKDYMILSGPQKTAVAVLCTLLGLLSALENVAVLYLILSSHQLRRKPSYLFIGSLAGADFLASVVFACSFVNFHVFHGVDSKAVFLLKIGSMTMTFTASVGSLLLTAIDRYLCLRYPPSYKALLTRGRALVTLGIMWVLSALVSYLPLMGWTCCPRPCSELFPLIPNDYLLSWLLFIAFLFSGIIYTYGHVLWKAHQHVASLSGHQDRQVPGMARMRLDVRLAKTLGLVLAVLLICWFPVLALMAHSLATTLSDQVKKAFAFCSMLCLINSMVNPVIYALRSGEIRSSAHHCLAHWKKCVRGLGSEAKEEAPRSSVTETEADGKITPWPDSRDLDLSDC

Holding throughout (format): functional, cell-based
The target of test [1] is T1, Cannabinoid receptor 2 (Homo sapiens, UniProt P34972). As to the kind of experiment: Partial agonist activity at wild type CB2 receptor (unknown origin) expressed in HEK293T assessed as increase in picometer shifts of reflected light wavelengths by DMR assay.
Test [2] addresses T1, Cannabinoid receptor 2. Description: Partial agonist activity at wild type CB2 receptor (unknown origin) stably expressed in HEK293T assessed as decrease in forskolin induced cAMP level preincubated for 15 mins followed by forskolin addition incubated for 15 mins by HTRF assay.
In test [3] the target is T2, Cannabinoid receptor 2 (Homo sapiens, UniProt P34972, S285L). Description: Partial agonist activity at CBR2 S2857.39L mutant (unknown origin) expressed in HEK293T assessed as increase in ERK1/2 phosphorylation incubated for 7 mins in presence of JWH-133 by AlphaScreenSureFire method.
The target in test [4] is T1, Cannabinoid receptor 2. Description: Partial agonist activity at wild type CB2 receptor (unknown origin) expressed in HEK293T assessed as increase in ERK1/2 phosphorylation incubated for 7 mins in presence of JWH-133 by AlphaScreenSureFire method.
Test [5] deals with T2, Cannabinoid receptor 2. As to the kind of experiment: Partial agonist activity at CBR2 S2857.39L mutant (unknown origin) stably expressed in HEK293T assessed as decrease in forskolin induced cAMP level preincubated for 15 mins followed by forskolin addition incubated for 15 mins in presence of JWH-133 by HTRF assay.
Test [6] addresses T3, Cannabinoid receptor 2 (Homo sapiens, UniProt P34972, A282M). As to the kind of experiment: Partial agonist activity at CBR2 A2827.36M mutant (unknown origin) expressed in HEK293T assessed as increase in ERK1/2 phosphorylation incubated for 7 mins in presence of JWH-133 by AlphaScreenSureFire method.
For test [7], the target named is T4, Cannabinoid receptor 2 (Homo sapiens, UniProt P34972, V36M). Description: Partial agonist activity at CBR2 V361.35M mutant (unknown origin) expressed in HEK293T assessed as increase in ERK1/2 phosphorylation incubated for 7 mins in presence of JWH-133 by AlphaScreenSureFire method.
The target of test [8] is T5, Cannabinoid receptor 2 (Homo sapiens, UniProt P34972, V113M). Description: Partial agonist activity at CBR2 V1133.32M mutant (unknown origin) expressed in HEK293T assessed as increase in ERK1/2 phosphorylation incubated for 7 mins in presence of JWH-133 by AlphaScreenSureFire method.
Test [9] deals with T4, Cannabinoid receptor 2. Description: Partial agonist activity at CBR2 V361.35M mutant (unknown origin) stably expressed in HEK293T assessed as decrease in forskolin induced cAMP level preincubated for 15 mins followed by forskolin addition incubated for 15 mins in presence of JWH-133 by HTRF assay.
The target of test [10] is T5, Cannabinoid receptor 2. As to the kind of experiment: Partial agonist activity at CBR2 V1133.32M mutant (unknown origin) expressed in HEK293T assessed as increase in ERK1/2 phosphorylation incubated for 7 mins by AlphaScreenSureFire method.
The target in test [11] is T5, Cannabinoid receptor 2. As to the kind of experiment: Partial agonist activity at CBR2 V1133.32M mutant (unknown origin) stably expressed in HEK293T assessed as decrease in forskolin induced cAMP level preincubated for 15 mins followed by forskolin addition incubated for 15 mins in presence of JWH-133 by HTRF assay.
For test [12], the target named is T1, Cannabinoid receptor 2. As to the kind of experiment: Partial agonist activity at wild type CB2 receptor (unknown origin) stably expressed in HEK293T assessed as decrease in forskolin induced cAMP level preincubated for 15 mins followed by forskolin addition incubated for 15 mins in presence of JWH-133 by HTRF assay.
Test [13] concerns the target T1, Cannabinoid receptor 2. As to the kind of experiment: Partial agonist activity at wild type CB2 receptor (unknown origin) expressed in HEK293T assessed as increase in picometer shifts of reflected light wavelengths in presence of JWH-133 by DMR assay.
Test [14] deals with T5, Cannabinoid receptor 2. As to the kind of experiment: Partial agonist activity at CBR2 V1133.32M mutant (unknown origin) expressed in HEK293T assessed as increase in picometer shifts of reflected light wavelengths in presence of JWH-133 by DMR assay.
For test [15], the target named is T3, Cannabinoid receptor 2. As to the kind of experiment: Partial agonist activity at CBR2 A2827.36M mutant (unknown origin) stably expressed in HEK293T assessed as decrease in forskolin induced cAMP level preincubated for 15 mins followed by forskolin addition incubated for 15 mins in presence of JWH-133 by HTRF assay.
For test [16], the target named is T1, Cannabinoid receptor 2. Description: Partial agonist activity at wild type CB2 receptor (unknown origin) expressed in HEK293T assessed as increase in ERK1/2 phosphorylation incubated for 7 mins by AlphaScreenSureFire method.
The target of test [17] is T1, Cannabinoid receptor 2. As to the kind of experiment: Positive allosteric modulation of JWH-133-induced agonist activity at wild type CB2 receptor (unknown origin) stably expressed in HEK293T cells assessed as inhibition of forskolin-stimulated cAMP levels preincubated for 15 mins followed by forskolin addition incubated for 15 mins by HTRF assay.
For test [18], the target named is T4, Cannabinoid receptor 2. As to the kind of experiment: Partial agonist activity at CBR2 V361.35M mutant (unknown origin) expressed in HEK293T assessed as increase in picometer shifts of reflected light wavelengths in presence of JWH-133 by DMR assay.
Test [19] addresses T5, Cannabinoid receptor 2. Description: Partial agonist activity at CBR2 V1133.32M mutant (unknown origin) stably expressed in HEK293T assessed as decrease in forskolin induced cAMP level preincubated for 15 mins followed by forskolin addition incubated for 15 mins by HTRF assay.
Test [20] has as its target T5, Cannabinoid receptor 2. Description: Partial agonist activity at CBR2 V1133.32M mutant (unknown origin) expressed in HEK293T assessed as increase in picometer shifts of reflected light wavelengths by DMR assay.

With `C=C(C)[C@@H]1CCC(C)=C[C@H]1c1c(O)cc(CCCCC)cc1O` [CANNABIDIOL], the EC50 is 501 nM on Cannabinoid receptor 2 [1]; 50.1 nM at Cannabinoid receptor 2 [2]; 31.6 nM at Cannabinoid receptor 2 [3]; 7.94 nM at Cannabinoid receptor 2 [4]; 39.8 nM on Cannabinoid receptor 2 [5]; 12.6 nM at Cannabinoid receptor 2 [6]. Further, the concentration giving a half-maximal response (EC50) on Cannabinoid receptor 2 [7] is 39.8 nM; on Cannabinoid receptor 2 [8], 39.8 nM; at Cannabinoid receptor 2 [9] it was 15.8 nM; at Cannabinoid receptor 2 [10], 12.6 nM; on Cannabinoid receptor 2 [11], 25.1 nM; at Cannabinoid receptor 2 [12] it was 50.1 nM. Further, the EC50 was 631 nM at Cannabinoid receptor 2 [13]; 398 nM at Cannabinoid receptor 2 [14]; 7.94 nM on Cannabinoid receptor 2 [15]; 12.6 nM on Cannabinoid receptor 2 [16]; 251 nM at Cannabinoid receptor 2 [17]; 631 nM on Cannabinoid receptor 2 [18]. Moreover, the EC50 on Cannabinoid receptor 2 [19] is 39.8 nM; on Cannabinoid receptor 2 [20], 631 nM.
